Percent of Retriever sedimented with PI3P liposomes in the presence of SNX17 and Kd data for two substances are collected here from publication PMC11772769, “Selective cargo and membrane recognition by SNX17 regulates its interaction with Retriever” (EMBO Reports, 2024).

The target of one assay is His-Sumo3-SNX17 (UniProt Q15036). Briefly: co-sedimentation.
The target in another assay is Peptide SNX17_(CT-18) (UniProt Q15036). Briefly: fluorescence polarisation. For orientation: Fluorescence polarisation rises when a labelled molecule tumbles more slowly, as on binding a larger partner.

In the case of “Retriever complex (from UniProt O14972 1-297; Q9UBQ0 1-182; Q7Z3J2 1-963) (complex; other documents disagree on this pair)”, the percent of Retriever sedimented with PI3P liposomes in the presence of SNX17 with His-Sumo3-SNX17 stood at 22%. The Kd is the concentration at which binding is half-saturated. Low values mean tighter binding, high ones weaker binding. In the assay with Peptide SNX17_(CT-18), “Retriever complex (from UniProt O14972 1-297; Q9UBQ0 1-182; Q7Z3J2 1-963)” returned a Kd of 5.7 µM.
